Assay results taken from ChEMBL document CHEMBL5625219, “Design, synthesis fusidic acid derivatives alleviate acute lung injury via inhibiting MAPK/NF-κB/NLRP3 pathway” (Eur J Med Chem, 2023).

Tests used:
Assay type in all cases: functional, cell-based
Settings in all cases: time 24.0 hrs
RAW264.7 [1] = experiment: Anti-inflammatory activity in mouse RAW264.7 cells assessed as inhibition of LPS-induced IL-6 production preincubated with compound for 1 hrs followed by LPS stimulation and measured after 23 hrs by ELISA
RAW264.7 [2] = experiment: Anti-inflammatory activity in mouse RAW264.7 cells assessed as inhibition of LPS-induced TNF-alpha production preincubated with compound for 1 hrs followed by LPS stimulation and measured after 23 hrs by ELISA
RAW264.7 [3] = experiment: Anti-inflammatory activity in mouse RAW264.7 cells assessed as inhibition of LPS-induced NO production preincubated with compound for 1 hrs followed by LPS stimulation and measured after 23 hrs by Griess reagent based method

Measured: Activity

CC(=O)O[C@H]1C[C@@]2(C)[C@@H](C[C@@H](O)[C@H]3[C@@]4(C)CC[C@@H](O)[C@@H](C)[C@@H]4CC[C@@]32C)/C1=C(\CCC=C(C)C)C(=O)OCc1cn(-c2ccccc2)nn1
active: RAW264.7 [1] Dose-Dependent Effect | RAW264.7 [2] Dose-Dependent Effect | RAW264.7 [3] Dose-Dependent Effect
